The results in this text go back to article PMC7769561, “Antileishmanial activity of synthetic analogs of the naturally occurring quinolone alkaloid N-methyl-8-methoxyflindersin” (PLoS ONE, 2020).

Structures are written as SMILES. Values joined by “and” are separate entries in the source; they are usually repeats but may differ in a detail not shown here. Equal entries are not always repeated.

The experiment has as its system L. (V.) panamensis intracellular amastigotes. Nature of the experiment: Antileishmanial activity in L. (V.) panamensis intracellular amastigotes in hMDMs. The experiment is classed as cell-based, Leishmania (Viannia) panamensis. How it is done: Next, 100 μL of the suspension was cultured in 96-well plates and infected with L. (V.) panamensis promastigotes (HMOM/COL/87/UA-140) at a 10:1 parasite:cell ratio. We incubated the plates in a 5% CO2 atmosphere for 4 h at 35°C. After incubation, we removed noninternalized parasites by washing the cells with 0.9% NaCl saline solution (Baxter International, Deerfield, IL, USA). The cells were incubated again for 24 h and then treated with each quinoline alkaloid–like compound at a concentration of 100, 10, 1, 0.1, and 0.01 μg/mL in a 5% CO2 atmosphere for 72 h at 36°C. Next, we quantified the percentage of infected cells using fluorescence microscopy, as previously described by Pérez-Cordero in 2011 [23], and quantified the parasite load (amount of intracellular promastigotes and amastigotes per cell) using Giemsa staining and flow cytometry (Cytomics FC 500 MPL; Beckman Coulter, Brea, CA, USA). […] Results were expressed as EC50 using Prism GraphPad software’s probit nonlinear regression analysis (https://www.graphpad.com/scientific-software/prism/). […]
The percentage inhibition was used to calculate EC50 by nonlinear regression analysis (fluorescence microscopy), while the parasite burden was evaluated as the percentage of intracellular promastigotes and amastigotes in 100 infected cells (Giemsa staining). […]

With `Nc1ccc2cccc(O)c2n1` [Compound 8, 2-amino-8-hydroxyquinoline], the “SI (selectivity index = CC50/EC50)” value was 5.44 and > 3.
